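Exposure lasted 48 hours, with cells grown in 96-well plates and compounds tested at five concentrations. Abbreviation: GI50, concentration required for 50% inhibition of growth. TGI marks complete inhibition of growth.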
Tests used:
Assay in all cases: DTP human tumour cell line panel, 48 h
UACC-257 melanoma = system: UACC-257 melanoma
MALME-3M melanoma = system: MALME-3M melanoma
CCRF-CEM leukemia = system: CCRF-CEM leukemia
OVCAR-4 ovarian = system: OVCAR-4 ovarian
HCT-116 colon = system: HCT-116 colon
KM12 colon = system: KM12 colon
RXF 393 renal = system: RXF 393 renal
HCC-2998 colon = system: HCC-2998 colon
SK-MEL-28 melanoma = system: SK-MEL-28 melanoma
SF-539 CNS = system: SF-539 CNS
CAKI-1 renal = system: CAKI-1 renal
KM20L2 colon = system: KM20L2 colon
OVCAR-5 ovarian = system: OVCAR-5 ovarian
M19-MEL melanoma = system: M19-MEL melanoma
HT29 colon = system: HT29 colon
LOX IMVI melanoma = system: LOX IMVI melanoma
SK-OV-3 ovarian = system: SK-OV-3 ovarian
NCI-H522 lung = system: NCI-H522 lung
M14 melanoma = system: M14 melanoma
HL-60(TB) leukemia = system: HL-60(TB) leukemia
DMS 114 small cell lung = system: DMS 114 small cell lung
RPMI-8226 leukemia = system: RPMI-8226 leukemia
SN12C renal = system: SN12C renal
NCI-H226 lung = system: NCI-H226 lung
NCI-H460 lung = system: NCI-H460 lung
SNB-78 CNS = system: SNB-78 CNS
UACC-62 melanoma = system: UACC-62 melanoma
OVCAR-8 ovarian = system: OVCAR-8 ovarian
ACHN renal = system: ACHN renal
A498 renal = system: A498 renal
SNB-75 CNS = system: SNB-75 CNS
COLO 205 colon = system: COLO 205 colon
NCI-H23 lung = system: NCI-H23 lung
HOP-92 NSCLC = system: HOP-92 NSCLC
IGROV1 ovarian = system: IGROV1 ovarian
UO-31 renal = system: UO-31 renal
K-562 leukemia = system: K-562 leukemia
SK-MEL-2 melanoma = system: SK-MEL-2 melanoma
HOP-18 NSCLC = system: HOP-18 NSCLC
SNB-19 CNS = system: SNB-19 CNS
U251 CNS = system: U251 CNS
DLD-1 colon = system: DLD-1 colon
786-0 renal = system: 786-0 renal
SW-620 colon = system: SW-620 colon
MOLT-4 leukemia = system: MOLT-4 leukemia
A549 NSCLC = system: A549 NSCLC
OVCAR-3 ovarian = system: OVCAR-3 ovarian
LXFL 529 NSCLC = system: LXFL 529 NSCLC
SF-295 CNS = system: SF-295 CNS
TK-10 renal = system: TK-10 renal
SK-MEL-5 melanoma = system: SK-MEL-5 melanoma
HCT-15 colon = system: HCT-15 colon
NCI-H322M lung = system: NCI-H322M lung
DMS 273 small cell lung = system: DMS 273 small cell lung
SF-268 CNS = system: SF-268 CNS
EKVX NSCLC = system: EKVX NSCLC

## O=[N+]([O-])N1CCCS1(=O)=O
UACC-257 melanoma
  GI50: > 100 µM
  TGI: > 100 µM
MALME-3M melanoma
  GI50: > 100 µM
  TGI: > 100 µM
CCRF-CEM leukemia
  GI50: > 100 µM
  TGI: > 100 µM
OVCAR-4 ovarian
  GI50: > 100 µM
  TGI: > 100 µM
HCT-116 colon
  GI50: > 100 µM
  TGI: > 100 µM
KM12 colon
  GI50: > 100 µM
  TGI: > 100 µM
RXF 393 renal
  GI50: > 100 µM
  TGI: > 100 µM
HCC-2998 colon
  GI50: > 100 µM
  TGI: > 100 µM
SK-MEL-28 melanoma
  GI50: > 100 µM
  TGI: > 100 µM
SF-539 CNS
  GI50: > 100 µM
  TGI: > 100 µM
CAKI-1 renal
  GI50: > 100 µM
  TGI: > 100 µM
KM20L2 colon
  GI50: > 100 µM
  TGI: > 100 µM
OVCAR-5 ovarian
  GI50: > 100 µM
  TGI: > 100 µM
M19-MEL melanoma
  GI50: > 100 µM
  TGI: > 100 µM
HT29 colon
  GI50: > 100 µM
  TGI: > 100 µM
LOX IMVI melanoma
  GI50: > 100 µM
  TGI: > 100 µM
SK-OV-3 ovarian
  GI50: > 100 µM
  TGI: > 100 µM
NCI-H522 lung
  GI50: > 100 µM
  TGI: > 100 µM
M14 melanoma
  GI50: > 100 µM
  TGI: > 100 µM
HL-60(TB) leukemia
  GI50: > 100 µM
  TGI: > 100 µM
DMS 114 small cell lung
  GI50: > 100 µM
  TGI: > 100 µM
RPMI-8226 leukemia
  GI50: > 100 µM
  TGI: > 100 µM
SN12C renal
  GI50: > 100 µM
  TGI: > 100 µM
NCI-H226 lung
  GI50: 94 µM
  TGI: > 100 µM
NCI-H460 lung
  GI50: > 100 µM
  TGI: > 100 µM
SNB-78 CNS
  GI50: > 100 µM
  TGI: > 100 µM
UACC-62 melanoma
  GI50: > 100 µM
  TGI: > 100 µM
OVCAR-8 ovarian
  GI50: > 100 µM
  TGI: > 100 µM
ACHN renal
  GI50: > 100 µM
  TGI: > 100 µM
A498 renal
  GI50: > 100 µM
  TGI: > 100 µM
SNB-75 CNS
  GI50: > 100 µM
  TGI: > 100 µM
COLO 205 colon
  GI50: > 100 µM
  TGI: > 100 µM
NCI-H23 lung
  GI50: > 100 µM
  TGI: > 100 µM
HOP-92 NSCLC
  GI50: > 100 µM
  TGI: > 100 µM
IGROV1 ovarian
  GI50: > 100 µM
  TGI: > 100 µM
UO-31 renal
  GI50: > 100 µM
  TGI: > 100 µM
K-562 leukemia
  GI50: > 100 µM
  TGI: > 100 µM
SK-MEL-2 melanoma
  GI50: > 100 µM
  TGI: > 100 µM
HOP-18 NSCLC
  GI50: > 100 µM
  TGI: > 100 µM
SNB-19 CNS
  GI50: > 100 µM
  TGI: > 100 µM
U251 CNS
  GI50: > 100 µM
  TGI: > 100 µM
DLD-1 colon
  GI50: > 100 µM
  TGI: > 100 µM
786-0 renal
  GI50: > 100 µM
  TGI: > 100 µM
SW-620 colon
  GI50: > 100 µM
  TGI: > 100 µM
MOLT-4 leukemia
  GI50: > 100 µM
  TGI: > 100 µM
A549 NSCLC
  GI50: > 100 µM
  TGI: > 100 µM
OVCAR-3 ovarian
  GI50: > 100 µM
  TGI: > 100 µM
LXFL 529 NSCLC
  GI50: > 100 µM
  TGI: > 100 µM
SF-295 CNS
  GI50: > 100 µM
  TGI: > 100 µM
TK-10 renal
  GI50: > 100 µM
  TGI: > 100 µM
SK-MEL-5 melanoma
  GI50: > 100 µM
  TGI: > 100 µM
HCT-15 colon
  GI50: > 100 µM
  TGI: > 100 µM
NCI-H322M lung
  GI50: > 100 µM
  TGI: > 100 µM
DMS 273 small cell lung
  GI50: > 100 µM
  TGI: > 100 µM
SF-268 CNS
  GI50: > 100 µM
  TGI: > 100 µM
EKVX NSCLC
  GI50: > 100 µM
  TGI: > 100 µM

Reference: PubChem BioAssay (NCI)
